Tested on: PSC lines that did not readily differentiate into neural tissue
Assay: Cerebral organoid differentiation, unguided protocol (STEMdiff Cerebral Organoid Kit), panel of bad differentiator lines
Assay type: cell-based, human
Conditions: added to generate EBs; due to cell death
Source text: The so called “unguided protocol” relies on the natural propensity of PSCs to differentiate to neural fate and specifically forebrain when not exposed to any growth factors. The inventors cultured PSCs in Stemflex (Thermo) medium on plates coated with Matrigel growth factor reduced (Corning) and for generation of brain organoids they used STEMdiff Cerebral Organoid Kit (Stemcell Technologies). […] To address this variability that plagues not only the neural organoid field but also others that rely on 2D and 3D differentiation to a variety of cell types, the inventors investigated the potential sources of this variability in PSCs and potential treatments to address this problem or, in other words, to standardise the performance of PSCs during differentiation.
Because neural differentiation represents the default program upon pluripotency exit, the ability of a cell line to undergo such unguided differentiation is also a good indication of their pluripotent state. The other approach was to in depth characterise PSC lines that either produce good or bad organoids by proteomics and phosphoproteomics, analysis of already available bulk RNAseq data to learn about their transcriptome, and by ATACseq to learn about open chromatin patterns. […] Based on the combination of information gathered from both approaches, a number of treatments were chosen to test on the bad differentiators.

## alpha-ketoglutarate
  Effect: embryoid body formation: Embryoid bodies don't form
